In patent publication US9586928B2 (The Scripps Research Institute, priority 2011, dated 2017):

Target: T1, FXR (Homo sapiens, UniProt Q96RI1)
T1 sequence (Q96RI1 262-486 limits assumed): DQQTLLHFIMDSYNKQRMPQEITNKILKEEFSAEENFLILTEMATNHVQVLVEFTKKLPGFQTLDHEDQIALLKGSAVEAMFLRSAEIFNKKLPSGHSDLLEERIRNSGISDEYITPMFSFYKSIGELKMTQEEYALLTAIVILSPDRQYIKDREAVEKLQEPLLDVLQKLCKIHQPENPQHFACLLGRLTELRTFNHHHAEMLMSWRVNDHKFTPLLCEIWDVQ
Assay: Gal4-FXR / UAS luciferase cotransfection assay
Assay type: cell-based
Conditions: Gal4 chimeric cotransfection
Procedure: Cotransfection assays were performed as previously described in HEK293 cells (Gal4 cotransfection assay or IL-17 luciferase reporter)[8]. HEK293 and the mouse lymphoma EL4 (ATCC) cells were maintained in DMEM supplemented with 10% FBS plus antibiotics (penicillin and streptomycin; Invitrogen).
HEK293 cells were maintained in Dulbecco's modified Eagle's medium (DMEM) supplemented with 10% fetal bovine serum at 37° C. under 5% CO2. Reverse transfections were performed in bulk using 1×10^6 cells in 6 cm plates, 3 ug of total DNA in a 1:1 ratio of receptor and reporter and FuGene6 (Roche) in a 1:3 DNA:lipid ratio. Following day, cells re plated in 384 well plates at a density of 10,000 cells/well. After 4 hr, the cells were treated with the compound or DMSO as control. The luciferase levels were assayed following additional 20 hour incubation by one-step addition of BriteLite Plus (Perkin Elmer) and read using an Envision (Perkin Elmer). Data was normalized as fold change over DMSO treated cells.

## CC(C)c1onc(-c2c(Cl)cccc2Cl)c1COc1ccc(/C=C/c2cccc(C(=O)O)c2)c(Cl)c1 [GW4064, reference compound]
  effect on transcriptional activity of FXR: significant increase
